Assay results published in patent publication US20120046222A1.

Biological target: T1, GLP-1 receptor, P32301
T1 chain: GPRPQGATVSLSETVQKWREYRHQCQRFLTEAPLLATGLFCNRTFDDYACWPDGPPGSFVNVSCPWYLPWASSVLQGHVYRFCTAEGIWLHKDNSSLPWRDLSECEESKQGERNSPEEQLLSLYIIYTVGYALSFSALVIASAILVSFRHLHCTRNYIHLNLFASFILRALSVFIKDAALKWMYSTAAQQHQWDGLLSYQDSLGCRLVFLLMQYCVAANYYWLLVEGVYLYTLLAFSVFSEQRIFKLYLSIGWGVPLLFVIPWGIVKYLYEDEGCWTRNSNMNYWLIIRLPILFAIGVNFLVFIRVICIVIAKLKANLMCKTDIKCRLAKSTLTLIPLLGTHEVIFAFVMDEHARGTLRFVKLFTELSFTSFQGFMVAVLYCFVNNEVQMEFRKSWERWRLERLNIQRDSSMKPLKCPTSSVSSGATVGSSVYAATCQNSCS
Test: cell-based or functional assay

Binder APGTFTSDLSKQMEEEAVRLFIEWLKNK (modifications not checked) [Compound 24D] has a Cyclase GLP-1 Receptor EC50 of 0.77 nM.
